Source: patent US10227346B2, “Methyl- and trifluoromethyl-substituted pyrrolopyridine modulators of RORC2 and methods of use therof” (Pfizer Inc., priority 2014, dated 2019)

Tested on: IL-17 production from human Th17 cells;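 note: purified human CD4+ T cells activated with anti-CD3 plus anti-CD28 and a Th17-inducing cytokine cocktail, with compound at serial concentrations versus no compound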
Assay: IL-17 production from human Th17 cells;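 note: purified human CD4+ T cells activated with anti-CD3 plus anti-CD28 and a Th17-inducing cytokine cocktail, with compound at serial concentrations versus no compound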
Assay type: cell-based
Conditions: CD4+ T, 144 h

Row | Compound | IC50 [nM]
1 | COc1cc(C#N)cc(C(=O)Nc2cnc3c(c(C4CCN(C(=O)C(C)C)CC4)cn3C)c2C(F)(F)F)c1 [Example 8, 3-cyano-N-(3-(1-isobutyrylpiperidin-4-yl)-1-methyl-4-(trifluoromethyl)-1H-pyrrolo[2,3-b]pyridin-5-yl)-5-methoxybenzamide] | 14.4
2 | Cc1c(NC(=O)c2cccc(C#N)c2)cnc2c1c([C@@H]1CCN(C(=O)[C@H](C)C(F)(F)F)[C@@H](C)C1)cn2C [Example 91, 3-cyano-N-(1,4-dimethyl-3-((2S,4R)-2-methyl-1-((S)-3,3,3-trifluoro-2-methylpropanoyl)-piperidin-4-yl)-1H-pyrrolo[2,3-b]pyridin-5-yl)benzamide] | 16.2
3 | Cc1c(NC(=O)c2cccc(C#N)c2)cnc2c1c(C1CCN(C(=O)[C@@H](C)C(F)(F)F)CC1)cn2C (single isomer, unassigned) [Example 111] | 24.2
4 | COCCOc1cc(C#N)cc(C(=O)Nc2cnc3c(c(C4CCN(C(=O)C5CCCC5)CC4)cn3C)c2C)c1 [Example 57, 3-cyano-N-(3-(1-(cyclopentanecarbonyl)piperidin-4-yl)-1,4-dimethyl-1H-pyrrolo[2,3-b]pyridin-5-yl)-5-(2-methoxyethoxy)benzamide] | 36.4
5 | Cc1c(NC(=O)c2cccc(C#N)c2)cnc2c1c([C@@H]1CCN(C(=O)C(C)C)C[C@@H]1C)cn2C [Example 85, 3-cyano-N-(3-((3R,4R)-1-isobutyryl-3-methylpiperidin-4-yl)-1,4-dimethyl-1H-pyrrolo[2,3-b]pyridin-5-yl)benzamide] | 15.5
6 | CC(C)C(C)(C)CC(=O)N1CCC(c2cn(C)c3ncc(NC(=O)c4cccc(C#N)c4)c(C(F)(F)F)c23)CC1 [Example 17, 3-cyano-N-(1-methyl-4-(trifluoromethyl)-3-(1-(3,3,4-trimethylpentanoyl)piperidin-4-yl)-1H-pyrrolo[2,3-b]pyridin-5-yl)benzamide] | 10.7
7 | COc1cc(C#N)cc(C(=O)Nc2cnc3c(c(C4CCN(C(=O)C5CCCC5)CC4)cn3C)c2C)c1 [Example 52, 3-cyano-N-(3-(1-(cyclopentanecarbonyl)piperidin-4-yl)-1,4-dimethyl-1H-pyrrolo[2,3-b]pyridin-5-yl)-5-methoxybenzamide] | 12
8 | Cc1c(NC(=O)c2cc(O)cc(C#N)c2)cnc2c1c(C1CCN(C(=O)C3CCCC3)CC1)cn2C [Example 53, 3-cyano-N-(3-(1-(cyclopentanecarbonyl)piperidin-4-yl)-1,4-dimethyl-1H-pyrrolo[2,3-b]pyridin-5-yl)-5-hydroxybenzamide] | 121
9 | Cc1c(NC(=O)c2cccc(C#N)c2)cnc2c1c([C@@H]1C[C@H]3CC[C@@H]1CN3C(=O)C1CCCC1)cn2C (relative stereo) [Example 100, 3-cyano-N-(3-((1R*,4S*,5R*)-2-(cyclopentanecarbonyl)-2-azabicyclo[2.2.2]octan-5-yl)-1,4-dimethyl-1H-pyrrolo[2,3-b]pyridin-5-yl)benzamide] | 10.4
10 | Cc1c(NC(=O)c2cccc(C#N)c2)cnc2c1c(C1CCN(C(=O)[C@H]3C[C@H]4CC[C@@H]3C4)CC1)cn2C [Example 35, N-(3-(1-((1R,2S,4S)-bicyclo[2.2.1]heptane-2-carbonyl)piperidin-4-yl)-1,4-dimethyl-1H-pyrrolo[2,3-b]pyridin-5-yl)-3-cyanobenzamide] | 14.3
11 | COc1ccc(C(=O)Nc2cnc3c(c([C@@H]4CCN(C(=O)C5CCCC5)C(C)(C)C4)cn3C)c2C)cc1C#N [Example 60, (R)-3-cyano-N-(3-(1-(cyclopentanecarbonyl)-2,2-dimethylpiperidin-4-yl)-1,4-dimethyl-1H-pyrrolo[2,3-b]pyridin-5-yl)-4-methoxybenzamide] | 15
12 | Cc1c(NC(=O)c2cccc(C#N)c2)cnc2c1c([C@@H]1CCN(C(=O)[C@@H](C)C(F)(F)F)[C@@H](C)C1)cn2C [Example 92, 3-cyano-N-(1,4-dimethyl-3-((2S,4R)-2-methyl-1-((R)-3,3,3-trifluoro-2-methylpropanoyl)piperidin-4-yl)-1H-pyrrolo[2,3-b]pyridin-5-yl)benzamide] | 22.3
13 | Cc1c(NC(=O)c2cccc(C#N)c2)cnc2c1c(C1CCN(C(=O)C(C)C)C3(CC3)C1)cn2C (stereo not drawn) [Example 96, 3-cyano-N-(3-(4-isobutyryl-4-azaspiro[2.5]octan-7-yl)-1,4-dimethyl-1H-pyrrolo[2,3-b]pyridin-5-yl)benzamide] | 46
14 | Cc1c(NC(=O)c2cccc(C#N)c2)cnc2c1c([C@@H]1CCN(C(=O)[C@H](C)C(F)(F)F)C[C@@H]1C)cn2C [Example 89, 3-cyano-N-(1,4-dimethyl-3-((3R,4R)-3-methyl-1-((S)-3,3,3-trifluoro-2-methylpropanoyl)piperidin-4-yl)-1H-pyrrolo[2,3-b]pyridin-5-yl)benzamide] | 16.6
15 | COc1ccc(C(=O)Nc2cnc3c(c(C4CCN(C(=O)[C@H](C)C(F)(F)F)CC4)cn3C)c2C)cc1C#N (single isomer, unassigned) [Example 45] | 16
16 | Cc1c(NC(=O)c2cccc(C#N)c2)cnc2c1c([C@@H]1CCN(C(=O)CC3CC3)C[C@@H]1C)cn2C [Example 83, 3-cyano-N-(3-((3R,4R)-1-(2-cyclopropylacetyl)-3-methylpiperidin-4-yl)-1,4-dimethyl-1H-pyrrolo[2,3-b]pyridin-5-yl)benzamide] | 70.5
17 | Cc1ccc(C(=O)Nc2cnc3c(c(C4CCN(C(=O)C5CCCC5)CC4)cn3C)c2C(F)(F)F)cc1C#N [Example 2, 3-cyano-N-(3-(1-(cyclopentanecarbonyl)piperidin-4-yl)-1-methyl-4-(trifluoromethyl)-1H-pyrrolo[2,3-b]pyridin-5-yl)-4-methylbenzamide] | 15.2

These reach a lower IC50. Values come first.

Row | IC50 [nM] | Compound
18 | 9.3 | COc1cc(C#N)cc(C(=O)Nc2cnc3c(c([C@@H]4CCN(C(=O)C5CCCC5)C(C)(C)C4)cn3C)c2C)c1 [Example 58, (R)-3-cyano-N-(3-(1-(cyclopentanecarbonyl)-2,2-dimethylpiperidin-4-yl)-1,4-dimethyl-1H-pyrrolo[2,3-b]pyridin-5-yl)-5-methoxybenzamide]
19 | 6.6 | Cc1c(NC(=O)c2cccc(C#N)c2)cnc2c1c(C1CCN(C(=O)[C@@H]3C[C@@H]4CC[C@H]3C4)CC1)cn2C [Example 36, N-(3-(1-((1S,2R,4R)-bicyclo[2.2.1]heptane-2-carbonyl)piperidin-4-yl)-1,4-dimethyl-1H-pyrrolo[2,3-b]pyridin-5-yl)-3-cyanobenzamide]
20 | 6 | Cc1c(NC(=O)c2cccc(C#N)c2)cnc2c1c([C@@H]1CCN(C(=O)C3CCCC3)C[C@@H]1C)cn2C [Example 84, 3-cyano-N-(3-((3R,4R)-1-(cyclopentanecarbonyl)-3-methylpiperidin-4-yl)-1,4-dimethyl-1 H-pyrrolo[2,3-b]pyridin-5-yl)benzamide]
21 | 5.7 | CC(C)C(=O)N1CC[C@@H](c2cn(C)c3ncc(NC(=O)c4cccc(C#N)c4)c(C(F)(F)F)c23)C[C@@H]1C [Example 95, 3-cyano-N-(3-((2S,4R)-1-isobutyryl-2-methylpiperidin-4-yl)-1-methyl-4-(trifluoromethyl)-1H-pyrrolo[2,3-b]pyridin-5-yl)benzamide]
22 | 5.3 | Cc1c(NC(=O)c2cccc(C#N)c2)cnc2c1c([C@@H]1CCN(C(=O)[C@H](C)C(C)(C)C)C(C)(C)C1)cn2C [Example 68, 3-cyano-N-(3-((R)-2,2-dimethyl-1-((R)-2,3,3-trimethylbutanoyl)piperidin-4-yl)-1,4-dimethyl-1H-pyrrolo[2,3-b]pyridin-5-yl)benzamide]
23 | 5 | COc1ccc(C(=O)Nc2cnc3c(c(C4CCN(C(=O)C(C)C)CC4)cn3C)c2C(F)(F)F)cc1C#N [Example 6, 3-cyano-N-(3-(1-isobutyrylpiperidin-4-yl)-1-methyl-4-(trifluoromethyl)-1H-pyrrolo[2,3-b]pyridin-5-yl)-4-methoxybenzamide]
24 | 4.7 | COc1ccc(C(=O)Nc2cnc3c(c(C4CCN(C(=O)[C@@H](C)C(C)(C)C)CC4)cn3C)c2C(F)(F)F)cc1C#N [Example 31, (S)-3-cyano-4-methoxy-N-(1-methyl-4-(trifluoromethyl)-3-(1-(2,3,3-trimethylbutanoyl)piperidin-4-yl)-1H-pyrrolo[2,3-b]pyridin-5-yl)benzamide]
25 | 4.2 | COc1ccc(C(=O)Nc2cnc3c(c([C@@H]4CCN(C(=O)C(C)C)C(C)(C)C4)cn3C)c2C(F)(F)F)cc1C#N [Example 67, (R)-3-cyano-N-(3-(1-isobutyryl-2,2-dimethylpiperidin-4-yl)-1-methyl-4-(trifluoromethyl)-1H-pyrrolo[2,3-b]pyridin-5-yl)-4-methoxybenzamide]
26 | 4 | COc1ccc(C(=O)Nc2cnc3c(c(C4[C@@H]5CC[C@H]4CN(C(=O)C(C)C)C5)cn3C)c2C(F)(F)F)cc1C#N (stereo partly drawn) [Example 78, 3-cyano-N-(3-((1R,5S,8r)-3-isobutyryl-3-azabicyclo[3.2.1]octan-8-yl)-1-methyl-4-(trifluoromethyl)-1H-pyrrolo[2,3-b]pyridin-5-yl)-4-methoxybenzamide]
27 | 3.5 | COc1ccc(C(=O)Nc2cnc3c(c(C4CCN(C(=O)C5CCCC5)CC4)cn3C)c2C(F)(F)F)cc1C#N [Example 4, 3-cyano-N-(3-(1-(cyclopentanecarbonyl)piperidin-4-yl)-1-methyl-4-(trifluoromethyl)-1H-pyrrolo[2,3-b]pyridin-5-yl)-4-methoxybenzamide]
28 | 3.5 | COc1ccc(C(=O)Nc2cnc3c(c([C@@H]4CCN(C(=O)C(C)C)C(C)(C)C4)cn3C)c2C)cc1C#N [Example 70, (R)-3-cyano-N-(3-(1-isobutyryl-2,2-dimethylpiperidin-4-yl)-1,4-dimethyl-1H-pyrrolo[2,3-b]pyridin-5-yl)-4-methoxybenzamide]
29 | 3.4 | Cc1c(NC(=O)c2cccc(C#N)c2)cnc2c1c(C1CCN(C(=O)[C@H](C)C(C)(C)C)CC1)cn2C [Example 32, (R)-3-cyano-N-(1,4-dimethyl-3-(1-(2,3,3-trimethylbutanoyl)piperidin-4-yl)-1H-pyrrolo[2,3-b]pyridin-5-yl)benzamide]
30 | 3.3 | C[C@H]1CN(C(=O)C2CCCC2)CC[C@H]1c1cn(C)c2ncc(NC(=O)c3cccc(C#N)c3)c(C(F)(F)F)c12 [Example 81, 3-cyano-N-(3-((3R,4R)-1-(cyclopentane-carbonyl)-3-methylpiperidin-4-yl)-1-methyl-4-(trifluoro-methyl)-1H-pyrrolo[2,3-b]pyridin-5-yl)benzamide]
